Experimental data published in the NIST ThermoML archive (doi:10.1016/j.fluid.2018.11.011).
± gives the expanded uncertainty stated by the source.

Assay: activity coefficient (dimensionless); of the first substance listed, at infinite dilution; xn = mol fraction of the nth substance listed
Settings: 101.33 kPa, Liquid, Chromatography, x1 = 0

SMILES	activity coefficient (323 K)	activity coefficient (338 K)	activity coefficient (353 K)
CCCCOCCCC [dibutyl ether] + CCCCCCCCCC[N+](C)(C)CCCCCCCCCC.[O-][Cl+3]([O-])([O-])[O-]	3.12 ± 0.33	4.5 ± 0.47	4.42 ± 0.46
CCCCOCCCC [dibutyl ether] + CCCCCCCCCC[N+](C)(C)CCCCCCCCCC.F[B-](F)(F)F	2.87 ± 0.3	2.65 ± 0.28	3.58 ± 0.38
